biological target: human CCR6 (Homo sapiens, UniProt P51684); assay: FLIPR assay (inhibition of CCL20-induced calcium signal); assay type: cell-based; conditions: read-out: FLIPR IC50; HEK-293 cells expressing human CCR6; mean values where determined several times

The chains behind the UniProt entries cited, without tags or fusion partners.
UniProt P51684, whole entry: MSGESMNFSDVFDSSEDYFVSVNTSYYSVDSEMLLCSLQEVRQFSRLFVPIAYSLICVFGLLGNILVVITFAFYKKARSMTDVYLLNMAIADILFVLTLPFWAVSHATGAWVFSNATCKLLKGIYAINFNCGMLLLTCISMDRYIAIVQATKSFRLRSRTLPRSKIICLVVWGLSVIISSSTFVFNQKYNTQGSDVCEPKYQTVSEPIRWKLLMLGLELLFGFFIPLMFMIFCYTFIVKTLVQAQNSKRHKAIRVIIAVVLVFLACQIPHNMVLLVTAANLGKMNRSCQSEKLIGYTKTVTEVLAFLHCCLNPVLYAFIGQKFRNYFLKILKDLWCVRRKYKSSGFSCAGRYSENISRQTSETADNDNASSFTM

Compared with `CC(C)c1ccc([C@](O)(c2cncc(N3CC(c4cnn(C)n4)CC3=O)c2)C2(C)CN(C)C2)cc1` (stereo partly shown), `CC(C)c1ccc([C@](O)(c2cncc(N3CC(c4ccnc(C(C)C)n4)CC3=O)c2)C2(C)CN(C)C2)cc1` (stereo partly shown) is 4.4-fold lower in IC50: 222 nM for the first, 50.5 nM for the second.

First: Cc1ccc(S(=O)(=O)N2CCC(c3cncc([C@@](O)(c4ccc(C(C)C)cc4)C4(C)CN(C)C4)c3)CC2)cc1
Second: CC(C)c1ccc([C@](O)(c2cncc(C3CCN(c4ccccc4)CC3)c2)C2(C)CN(C)C2)cc1
The IC50 of the first is 1.5-fold lower: 15.2 nM for the first, 23.4 nM for the second.

Reference: patent US12617773B2, “Azetidin-3-ylmethanol derivatives as CCR6 receptor modulators” (Idorsia Pharmaceuticals Ltd, priority 2020, dated 2026)
